Results on 100 compounds are retold here after PubChem BioAssay AID624304 (Sanford-Burnham Center for Chemical Genomics, 2012).

Molecules are shown by their SMILES. The list shows a part of the results, in another mix than the full data. Activity calls are given as the source filed them.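 How the source made its calls: active means interference check ratio from 0.5 to 1.5 plus GFP to RFP signal ratio inhibition reaching or exceeding a fixed threshold (cut at about 30% in these data, passing the limit was not always enough); inactive means the rest.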

The experiment in a line: suppressors of acrylamide-induced Pgst-4::GFP reporter in worms, primary screen, SKN-1 inhibitor project, whole organism, uHTS, GFP/RFP fluorescence ratio, strain VP596 (AID 624304). As to conditions: C. elegans VP596 Pgst-4::GFP/RFP ratio, 24 h, at 21.8 µM, stronger effect = higher value.
For `CC(C)C(=O)NC(Sc1ccccc1)C(Cl)(Cl)Cl` (stereo not given), the inhibition is inactive: -1.89%.
`O=P(Nc1nccs1)(c1ccccc1)c1ccccc1`: the inhibition was inactive: 14%.
Next, `c1nnnn1CCn1cnnn1`: inactive: 1.6%.
Take `O=[N+]([O-])c1ccc(O)c(/C=N/Nc2ccc([N+](=O)[O-])cc2[N+](=O)[O-])c1`: the inhibition is inactive: -8.45%.
Next, `O=[N+]([O-])c1ncn(CCn2cnc([N+](=O)[O-])n2)n1`: inactive: -8.71%; `CC(=O)NC(SC(=S)N(C)C)C(Cl)(Cl)Cl` (stereo not given): inactive: -3.19%; `O=[As](O)(c1ccccc1)c1ccc(O)cc1`: inactive: -3.6%.
Next, `C(Cc1nn[nH]n1)Cc1nn[nH]n1`: inactive: -8.81%.
Next, `Nc1ccc([As](=O)(O)c2ccc([N+](=O)[O-])cc2)cc1`: inactive: 9.29%; `O=C(OC1CN2CCC1CC2)c1cccc(Cl)c1` (stereo not given): inactive: 14.6%.
For `COc1ccc(N)c([N+](=O)[O-])c1[N+](=O)[O-]`, the inhibition was inactive: -3.32%.
On to `Nc1ccc(CCCCOc2ccccc2)cc1`, for which the inhibition is inactive: 6.33%.
`O=P(Nc1ccccn1)(c1ccc(Br)cc1)c1ccc(Br)cc1`: the inhibition was inactive: 1.13%.
For `CN(C)C1(CNC(=O)c2ccc(Cl)c(S(N)(=O)=O)c2)CCCCC1` the value was inactive: 13.1%; for `O=P(Nc1nc2ccccc2s1)(c1ccccc1)c1ccccc1`, inactive: -5.21%.
In the case of `C[C@H]1OP(=O)(Oc2ccccc2)[C@H](O)[C@H](O)[C@H]1N=[N+]=[N-]` (stereo not given in full), the inhibition is inactive: 8.98%.
Turning to `COC(=O)c1cc2c(s1)N=C(c1ccccc1)N(C)P2(=O)N1CCOCC1` (stereo not given), the inhibition is inactive: 14%.
Take `Cc1ccc(OP(=O)(Nc2ccccn2)Oc2ccc(C)cc2)cc1`: the inhibition is inactive: -6.09%.
Next, `CC(=O)NC(SC(=S)N(CC(C)C)CC(C)C)C(Cl)(Cl)Cl` (stereo not given): inactive: 6.92%; `O=C(OC1CN2CCC1CC2)c1ccccc1` (stereo not given): inactive: -10.3%.
Next, `CCC(=O)N1C2C3N(C(=O)CC)C1C1N(C(=O)CC)C(C(N1C(=O)CC)N3C(=O)CC)N2C(=O)CC`: inactive: 10.2%; `CC(NC(=O)COC(=O)C(O)(c1ccccc1)c1ccccc1)c1ccccc1` (stereo not given): inactive: -0.96%; `Cc1ccccc1OP(=O)(Nc1ccccn1)Oc1ccccc1C`: inactive: -7.81%.
For `O=c1c2cc([N+](=O)[O-])ccc2[nH]c2c([N+](=O)[O-])cc([N+](=O)[O-])cc12` the value was inactive: -4.93%.
`CN(C)C(=O)Oc1noc2ccccc12`: the inhibition is inactive: -16.6%.
For `CCNC(=S)/N=C(\N)N[N+](=O)[O-]`, the inhibition is inactive: -10.6%.
Next, `O=C(NC1CCS(=O)(=O)C1)NP(=S)(Oc1ccccc1)Oc1ccccc1` (stereo not given): inactive: 1.4%.
Next, `c1ccc(-c2nn[nH]n2)c(-c2nn[nH]n2)c1`: inactive: -4.38%; `Cc1ccc(NP(=O)(Oc2cccc(C)c2)Oc2cccc(C)c2)nc1`: inactive: -1.57%; `O=P1(N(CCCl)CCCl)OCCC2CCCCN21` (stereo not given): inactive: -3.13%.
With `CC(=O)c1ccc(N2CC2c2ccncc2)cc1` (stereo not given), the inhibition is inactive: 13.6%.
Next, `N#C/C(=C\c1ccc(N(CCBr)CCBr)cc1)C(N)=O`: inactive: 9.56%; `COC(=O)C1(C)COP(=O)(NCc2ccccc2)OC1` (stereo not given): inactive: -20.4%; `Cc1ccccc1CN(C)C(=O)COC(=O)C(O)(c1ccccc1)c1ccccc1`: inactive: 5.08%.
For the compound `C[C@H]1OP(=O)(Oc2ccccc2)C[C@@H]2O[C@@H]21` (stereo not given in full), the inhibition is inactive: -12.4%.
Consider `C[C@@H]1C=CCP(=O)(Oc2ccccc2)O1` (stereo not given in full), for which the inhibition is inactive: 18.7%.
With `CC(=O)Nc1ccc([As](=O)(O)O)c(O)c1`, the inhibition was inactive: 0.992%.
For `CC(=O)Nc1ccc(Oc2c([N+](=O)[O-])cc([N+](=O)[O-])cc2[N+](=O)[O-])cc1` the value was inactive: -0.393%; for `O=P1(Nc2nc3ccc(Cl)cc3s2)COc2ccccc2O1` (stereo not given), inactive: 12.7%; for `CCOc1ccc(C2=NCC(CBr)S2)cc1` (stereo not given), inactive: -3.12%.
In the case of `CCc1cc(O)c([N+](=O)[O-])c(C)c1[N+](=O)[O-]`, the inhibition is inactive: 3.93%.
As for `CC(C)(C)C(=O)NC(Sc1ccccc1)C(Cl)(Cl)Cl` (stereo not given), the inhibition was inactive: -9.03%.
As for `Nc1cc(N)c2nonc2c1[N+](=O)[O-]`, the inhibition is inactive: -0.173%.
For `CC(C)CC(=O)NC(Sc1ccc(Cl)cc1)C(Cl)(Cl)Cl` (stereo not given), the inhibition is inactive: 2.48%.
In the case of `Oc1ccccc1CNc1ccccn1`, the inhibition was inactive: -0.724%.
With `O=C(NC(Sc1ccncn1)C(Cl)(Cl)Cl)c1ccccc1` (stereo not given), the inhibition was inactive: -6.58%.
For `O=[N+]([O-])C1C(O)C(O)C([N+](=O)[O-])C(O)C1O` (stereo not given), the inhibition is inactive: 4.25%.
For the compound `NC(=O)c1cc([N+](=O)[O-])cc([N+](=O)[O-])c1N`, the inhibition was inactive: 8.63%.
For `CN(C(=O)Cc1ccc(Cl)c(Cl)c1)[C@H]1CCCC[C@H]1N1CCCC1` the value was inactive: 14.9%; for `Cc1ccc(N/C(=N/P(=O)(N2CCOCC2)N2CCOCC2)N2CCOCC2)cc1`, inactive: 5.24%; for `COc1ccccc1OP(=O)(Nc1ccc(C)cn1)Oc1ccccc1OC`, inactive: -9.14%.
Next, `Cc1ccc(OP(=O)(Nc2nccs2)Oc2ccc(C)cc2)cc1`: inactive: 4.49%.
Next, `CN1CCCC(OC(=O)C(c2ccccc2)c2ccccc2)C1` (stereo not given): inactive: 18.8%.
Take `Clc1ccc(Cl)c(NC2=NCC(CBr)S2)c1` (stereo not given): the inhibition is inactive: 8.47%.
Next, `CCN(N=Nc1nonc1N)c1nonc1N`: inactive: 6.91%; `Nc1cccc2ccc([As](=O)(O)O)cc12`: inactive: 60.8%; `CC(=O)Nc1ccc([As](=O)(O)O)cc1`: inactive: -3.15%.
Take `O=C(O)c1ccccc1[As](=O)(O)O`: the inhibition was inactive: 5.68%.
In the case of `CCCC1OP(N)(=O)OCC1CC` (stereo not given), the inhibition is inactive: 9.86%.
As for `O=P(Nc1nc2ccc(Cl)cc2s1)(c1ccccc1)c1ccccc1`, the inhibition is inactive: 2.09%.
With `CN(C)P(=O)(N(C)C)n1c(Nc2ccccc2)nnc1-c1ccccc1`, the inhibition was inactive: 7.72%.
For `Cc1cc(SC(NC(=O)c2ccc(F)cc2)C(Cl)(Cl)Cl)ncn1` (stereo not given) the value was inactive: 10.1%; for `CCOP(=O)(Nc1ccccc1)OCC`, inactive: 6.61%.
Turning to `Cc1ccc(NP(=O)(Oc2ccccc2F)Oc2ccccc2F)nc1`, the inhibition is inactive: -4.74%.
Consider `CN(C(=O)Cc1ccc(Cl)c(Cl)c1)[C@H]1CCCC[C@@H]1N1CCCC1`, for which the inhibition was inactive: -7.22%.
For `CC(C)(C)C(=O)NC(Sc1ccncn1)C(Cl)(Cl)Cl` (stereo not given) the value was inactive: -0.688%; for `O=[N+]([O-])c1ncn(CCn2ncnc2[N+](=O)[O-])n1`, inactive: 5.37%; for `COC(=O)C1(C)COP(=O)(Nc2ccccc2)OC1` (stereo not given), inactive: -11.2%.
For `O=[N+]([O-])c1cccc(NC2=NCC(CBr)S2)c1` (stereo not given) the value was inactive: -12.2%; for `O=C(O)CNc1ccc([As](=O)(O)O)cc1`, inactive: 12.2%; for `O=P1(N(CCCl)CCCl)OCCCS1` (stereo not given), inactive: -1.01%.
For `O=C(Nc1cc([As](=O)(O)O)ccc1O)c1ccccc1` the value was inactive: 18.7%.
Consider `Nc1ccc([As](=O)(O)c2ccc(N)cc2)cc1`, for which the inhibition was inactive: 2.52%.
Next, `C[N+]1=C2C=CC=CC=C2SC12C([N+](=O)[O-])=CC([N+](=O)[O-])=C[C-]2[N+](=O)[O-]` (stereo not given): inactive: 11.8%; `CCN(/C(=N/P(=O)(N1CCOCC1)N1CCOCC1)N1CCOCC1)c1ccc(OC)cc1`: inactive: 5.61%.
In the case of `CC(C)c1nc(Nc2ccccc2)n(P(=O)(N(C)C)N(C)C)n1`, the inhibition is inactive: -1.28%.
Consider `CC(C)=N/N=C(\N)N[N+](=O)[O-]`, for which the inhibition was inactive: 3.32%.
Next, `CN(C)C(=O)OCCc1n(C)cc[n+]1C`: inactive: 0.456%; `CC1CCN(C(=O)Oc2c(Cl)cc(Cl)c3cccnc23)CC1`: inactive: -25.6%; `c1cc(-c2nn[nH]n2)ccc1-c1nn[nH]n1`: inactive: 11.6%.
For `COc1ccc(C2=NCC(CBr)S2)cc1` (stereo not given) the value was inactive: -1.6%; for `O=[N+]([O-])c1cccc2n[nH]nc12`, inactive: -4.56%.
For `CC(=O)N1C2C3N(C(C)=O)C1C1N(C(C)=O)C(C(N1C(C)=O)N3C(C)=O)N2C(C)=O` the value was inactive: -1.59%; for `Cc1ccc(NP(=O)(Oc2ccccc2)Oc2ccccc2)nc1`, inactive: 0.782%; for `CCc1nc2c(n1)c1c(non1O)c1c2no[n+]1[O-]`, inactive: -14.3%.
With `O=[N+]([O-])c1cc([N+](=O)[O-])c(CCNc2ccccc2)c([N+](=O)[O-])c1`, the inhibition was inactive: 6.4%.
With `CCOC(=O)c1ccc(NC(=O)C(C)(CCl)SC)cc1` (stereo not given), the inhibition was inactive: 7.99%.
Next, `O=C(OC1CN2CCC1CC2)c1cccc([N+](=O)[O-])c1` (stereo not given): inactive: 17.5%; `CSc1ccc(Nc2c([N+](=O)[O-])cc([N+](=O)[O-])cc2[N+](=O)[O-])cc1`: inactive: 8.12%; `CCC(C)N(CC(C)C)C(=S)SC(NC(C)=O)C(Cl)(Cl)Cl` (stereo not given): inactive: -8.71%.
Next, `COP1(=S)c2c(C)nn(CCC#N)c2N=C(c2ccc(F)cc2)N1C` (stereo not given): inactive: 6.51%; `COC(=O)C1(C)COP(=O)(N2CCCC2)OC1` (stereo not given): inactive: 8.48%; `O=C(COc1ccccc1)OC1CN2CCC1CC2` (stereo not given): inactive: -5.72%.
For `O=C(Nc1ccncc1[N+](=O)[O-])c1ccc([N+](=O)[O-])cc1[N+](=O)[O-]` the value was inactive: -5.08%; for `O=C(O)C(=O)c1ccc(N(CCCl)CCCl)cc1`, inactive: 7.44%.
As to `CCOC(=O)Nc1cccc([As](=O)(O)O)c1`, the inhibition is inactive: -2.34%.
For `O=[N+]([O-])c1ccc(Nc2ccc(Oc3ccc([N+](=O)[O-])cc3[N+](=O)[O-])cc2)c([N+](=O)[O-])c1` the value was inactive: 10.3%.
For `O=P(Nc1ccccn1)(c1cccc2ccccc12)c1cccc2ccccc12` the value was inactive: 5.11%.
For `Cc1cc(SC(NC=O)C(Cl)(Cl)Cl)ncn1` (stereo not given) the value was inactive: -11.4%.
As to `CC1CCNP(=O)(N(CCCl)CCCl)O1` (stereo not given), the inhibition is inactive: 10.6%.

As usually defined, the inhibition is the change of the read-out against control, counted positive when it falls.
